Apparent affinities of Ab-95 variants for a coronavirus HR2 peptide

Binding partner: SARS-CoV-2 spike HR2 peptide, sequence PDVDLGDISGINAS.

Parent: Ab-95, a human scFv built as VH, the linker GGGGSGGGGSGGGGS, VL. Only the CDRs of the light chain vary.
VH: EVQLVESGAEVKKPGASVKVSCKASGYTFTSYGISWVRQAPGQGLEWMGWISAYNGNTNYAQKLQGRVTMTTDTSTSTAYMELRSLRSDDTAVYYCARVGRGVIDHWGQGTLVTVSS
VL: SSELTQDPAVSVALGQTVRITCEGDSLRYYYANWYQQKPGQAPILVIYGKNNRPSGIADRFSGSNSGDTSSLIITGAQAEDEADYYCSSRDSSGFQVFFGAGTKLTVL

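The starting antibody came from a phage panning campaign against this peptide. The library (AAYL52) carries one to three amino acid substitutions per variant, with no insertions or deletions. The scFvs were displayed on barcoded MATa yeast, the peptide on MATalpha yeast. Pairs that bind mate more often; barcode pairs of the diploids are counted by sequencing. Read counts were normalised to the haploid input and turned into Kd by a linear fit to BCL2-family pairs of known affinity, for each replicate. Mating was done three times.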

Positions count from residue 1 of the parent VL; L27R puts R in place of L.
The read-out is the apparent dissociation constant on a log10 scale (nM): the lower, the stronger.
A mean of the replicates is given; it leaves out those without a signal.
"nd" means that the variant was in the library but no mating with the target was seen in any replicate; the authors take this as a sign of poor binding, and no number exists.
For reference, the parent read 2.31 as the reference entry and 2.25 as a member of this library.

| mean log10 Kd (nM) | detected | changes |
|---|---|---|
| 3.42 | 3 of 3 | L27R+Y29E+R90D |
| 3.72 | 2 of 3 | N51F+S92H+G94Y |
| 2.37 | 3 of 3 | Y31M+A32S |
| 4.55 | 2 of 3 | S55F+G94W+V97E |
| 3.24 | 2 of 3 | K50Q+P54I+S88D |
| 2.94 | 3 of 3 | G24P+S26Y+L27W |
| 3.91 | 2 of 3 | D25N+N33C+Q96N |
| nd | 0 of 3 | S26M+R28E+R90T |
| 3.80 | 2 of 3 | Y30R+G49H+S93Y |
| 4.42 | 2 of 3 | A32D+N52C+D91L |
| 3.55 | 2 of 3 | L27H+A32Q+F95Y |
| 3.79 | 1 of 3 | G24L+R53K+S55N |
| 3.75 | 3 of 3 | R90N+S93M+Q96W |
| 4.33 | 2 of 3 | E23N+N33G+R90N |
| 1.99 | 3 of 3 | E23V+Y31A+S93H |
| 4.35 | 1 of 3 | L27G+V97E |
| 3.18 | 2 of 3 | N52W+Q96H+F98S |
| 3.16 | 3 of 3 | D25A+S88T+S92K |
| 3.99 | 1 of 3 | A32M+G49F+S88N |
| 3.58 | 3 of 3 | Y31P+P54R+G94P |
| 2.04 | 3 of 3 | S26D+N33S |
| 2.52 | 3 of 3 | G24V+F98I |
| 3.76 | 2 of 3 | S93C+G94N+F95W |
| 4.72 | 3 of 3 | S26T+A32D+P54A |
| 2.90 | 3 of 3 | G24R+D25M+S89C |
| 3.89 | 3 of 3 | D25M+N51P+R90C |
| 2.03 | 3 of 3 | E23K+G24H+S89M |
| 4.36 | 3 of 3 | K50W+S55K+F95M |
| 3.68 | 2 of 3 | S88G+S93Y+G94I |
| 3.36 | 2 of 3 | G24V+S55L+G94I |
| 2.51 | 3 of 3 | R53H+S92D+S93H |
| nd | 0 of 3 | Y31L+N51K+F98C |
| 4.19 | 1 of 3 | S26N+R28C+N52L |
| 3.35 | 2 of 3 | D25N+R53H+S55Y |
| 5.09 | 1 of 3 | Y29C+S92Y+V97N |
| 4.51 | 2 of 3 | E23L+G24P+R90P |
| 3.64 | 2 of 3 | D25K+G49H+D91W |
| 3.28 | 2 of 3 | D25G+R28Y+F98W |
| 4.22 | 2 of 3 | D25I+S26V+R28C |
| 1.93 | 3 of 3 | Y30A+S55A+S89E |
| 4.29 | 1 of 3 | D25C+S55F+F95G |
| 2.64 | 3 of 3 | R28W+F98Y |
| 3.36 | 3 of 3 | E23D+D25I+S93P |
| nd | 0 of 3 | A32L+G49N |
| 2.77 | 3 of 3 | R90E+G94W+V97W |
| 3.05 | 1 of 3 | K50Y+G94Q |
| 3.04 | 3 of 3 | L27Q+R28D+D91G |
| 2.19 | 3 of 3 | S55Q+S92Q+S93A |
| 2.75 | 3 of 3 | E23S+Y29W+R53T |
| 1.11 | 3 of 3 | Y31D+S89Y+S93D |
| 4.56 | 2 of 3 | S26T+S55V+F98M |
| 4.50 | 2 of 3 | R53V+G94F+F95Q |
| 3.69 | 3 of 3 | S55I+S92M+G94V |
| 4.42 | 1 of 3 | E23L+N51M+V97F |
| 2.82 | 2 of 3 | P54Q+G94T |
| 3.69 | 2 of 3 | N33R+S88N |
| 4.42 | 3 of 3 | S26W+A32V+S93W |
| 4.15 | 2 of 3 | G24K+R28W+F98C |
| nd | 0 of 3 | D91E+S92I+F95P |
| 3.58 | 3 of 3 | L27T+G49H+N51K |
| 2.71 | 3 of 3 | K50A+N52E+V97A |
| 4.53 | 1 of 3 | S88F+S92F+F95S |
| nd | 0 of 3 | R53H+S88Y+F98D |
| 2.14 | 3 of 3 | E23M+S89G+F98Y |
| nd | 0 of 3 | N51R+S55H+S93N |
| 4.53 | 1 of 3 | G49H+D91W+F95T |
| 3.11 | 1 of 3 | E23Y+S55N+G94M |
| 4.44 | 1 of 3 | P54F+V97E+F98C |
| 2.35 | 3 of 3 | E23T+N52G+F95C |
| nd | 0 of 3 | R28W+D91S+F95I |
| 3.08 | 3 of 3 | S89K+R90N+Q96L |
| 2.77 | 3 of 3 | R90N+D91P+Q96C |

Extract of 12 entries:

changes,mean log10 Kd (nM),detected
R53H+S88Y+F98D,nd,0 of 3
S26W+A32V+S93W,4.42,3 of 3
D25I+S26V+R28C,4.22,2 of 3
E23T+N52G+F95C,2.35,3 of 3
R53V+G94F+F95Q,4.50,2 of 3
N52W+Q96H+F98S,3.18,2 of 3
L27H+A32Q+F95Y,3.55,2 of 3
A32D+N52C+D91L,4.42,2 of 3
G24P+S26Y+L27W,2.94,3 of 3
D25G+R28Y+F98W,3.28,2 of 3
Y31M+A32S,2.37,3 of 3
L27T+G49H+N51K,3.58,3 of 3

Three control strains display no target. For library AAYL52, 28% of the pairings with them gave a signal, with a median of 3.91 and one signal in twenty below 2.90, so weak values seen in few replicates may be background.

Source: Engelhart et al. 2022 (doi:10.1038/s41597-022-01779-4), MIT Lincoln Laboratory and A-Alpha Bio; data file from the FLAb repository.